The record followed here is patent publication EP0478545B1, “1,2,4-BENZOTRIAZINE OXIDES AS RADIOSENSITIZERS AND SELECTIVE CYTOTOXIC AGENTS” (SRI INTERNATIONAL, priority 1989, dated 1991).

The data set has as its system HA-1 cells. The data set is described as follows: Hypoxic versus aerobic cytotoxicity from survival curves of cells in suspension culture. Conditions: compared to 3-amino-1,2,4-benzotriazine 1,4-dioxide (22).

Counter-ions that a name gives are not always drawn.

As to `CCN(CC)CCCNc1n[n+]([O-])c2ccccc2[n+]1[O-]` [Compound 18a, 3-(3-N,N-diethylaminopropylamino)-1,2,4 benzotriazine 1,4-dioxide], the “cytotoxicity against hypoxic HA-1 tumor cells in vitro” value is “significantly enhanced cytotoxicity”.

Consider `CCN(CC)CCNc1n[n+]([O-])c2cc([N+](=O)[O-])ccc2[n+]1[O-]` [Compound 21, 7-nitro-3-(2-N,N-diethylaminoethylamino)-1,2,4-benzotriazine 1,4-dioxide hydrochloride], for which the “cytotoxicity against hypoxic HA-1 tumor cells in vitro” value is recorded as “significantly enhanced cytotoxicity”.
